Reference: PubChem BioAssay AID1508591

Conditions: rat; liver microsomes; pH 7.4; 15.0 min; 1.0 µM

For `CC(=O)NC(SC(=S)N(C)C)C(Cl)(Cl)Cl` (stereo unspecified), which half-life is on record?
The half-life was 1.4 min.
